Experimental data reported in patent publication US8841312B2, “Fused pyridine, pyrimidine and triazine compounds as cell cycle inhibitors” (Amgen Inc., priority 2007, dated 2014).

Protein sequences, listed by entry. Tags and fused reporters are not part of them. Lines headed by an entry give the natural chain unless they say otherwise; changes in a name come on top.
UniProt Q00534, whole entry: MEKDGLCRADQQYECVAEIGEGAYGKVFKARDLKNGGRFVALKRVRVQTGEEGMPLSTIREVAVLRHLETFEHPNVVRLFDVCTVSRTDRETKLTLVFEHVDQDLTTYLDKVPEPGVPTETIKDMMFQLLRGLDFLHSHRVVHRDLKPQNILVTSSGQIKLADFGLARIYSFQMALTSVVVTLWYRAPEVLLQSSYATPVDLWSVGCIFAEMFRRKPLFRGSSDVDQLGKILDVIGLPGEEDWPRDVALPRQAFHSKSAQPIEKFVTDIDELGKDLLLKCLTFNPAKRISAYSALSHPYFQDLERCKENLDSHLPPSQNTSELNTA
UniProt P11802: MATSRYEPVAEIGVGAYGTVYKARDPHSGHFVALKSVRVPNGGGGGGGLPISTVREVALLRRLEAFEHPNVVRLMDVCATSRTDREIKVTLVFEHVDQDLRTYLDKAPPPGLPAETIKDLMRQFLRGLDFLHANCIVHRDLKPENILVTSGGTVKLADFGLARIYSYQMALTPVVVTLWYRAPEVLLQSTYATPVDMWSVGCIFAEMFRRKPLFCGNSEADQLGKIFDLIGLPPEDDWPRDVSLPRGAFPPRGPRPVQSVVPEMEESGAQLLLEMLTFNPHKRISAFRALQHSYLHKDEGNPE

Columns and labels:
[1] = biological target: Cdk6/CyclinD3 (Homo sapiens (Human), UniProt Q00534); assay: Cdk6 kinase inhibition assay with recombinant Cdk6/CyclinD3, Rb substrate, [33P]-ATP filter plate; type: biochemical; settings: 25 μM ATP, read-out: Cdk 6 IC50
Protocol: (§1) The Cdk4 and Cdk6 inhibitory activity of the compounds is measured with a kinase inhibition assay using recombinant Cdk4/CyclinD1 or Cdk6/CyclinD3 protein complexes. The protein substrate used in the assay is the retinoblastoma protein (Rb). The kinase reactions are carried out in a 96-well filter plate (MSDV N6B50, Millipore). […] The mixture is incubated at room temperature for 1 hour and the proteins precipitated with an equal volume of 20% TCA. The plates are washed with 10% TCA according to the manufacturer's instruction and dried at room temperature. The amount of the phosphorylated Rb is determined with a TopCount (PerkinElmer). The IC50 of a compound is determined by nonlinear regression curve fitting using software program Prism 5 (GraphPad Software).

[2] = biological target: Cdk4/CyclinD1 (Homo sapiens (Human), UniProt P11802); assay: Cdk4 kinase inhibition assay with recombinant Cdk4/CyclinD1, Rb substrate, [33P]-ATP filter plate; type: biochemical; settings: 25 μM ATP, read-out: Cdk 4 IC50
Protocol: as §1

| IC50 [1] [nM] | IC50 [2] [nM] | SMILES |
| --- | --- | --- |
| 13.1 |  | c1cc2c3cnc(Nc4ccc(N5CCNCC5)cn4)nc3n(C3CCCCC3)c2cn1 [Example 23, (9-Cyclohexyl-9H-pyrido[4′,3′,4,5]pyrrolo[2,3-d]pyrimidin-2-yl)-(5-piperazin-1-yl-pyridin-2-yl)-amine] |
|  | 5.1 | F[C@@H]1CCN(c2ccc(Nc3ncc4c5ccncc5n(C5CCCC5)c4n3)nn2)C1 [Example 119] |
| 11.2 |  | c1cc2c3cnc(Nc4ccc(N[C@@H]5CCNC5)nn4)nc3n(C3CCCC3)c2cn1 [Example 91] |
| 4.9 |  | OCCN1CCN(c2ccc(Nc3ncc4c5ccncc5n(C5CCCC5)c4n3)nc2)CC1 [Example 191, 2-(4-(6-((9-Cyclopentyl-9H-pyrido[4′,3′:4,5]pyrrolo[2,3-d]pyrimidin-2-yl)amino)-3-pyridinyl)-1-piperazinyl)ethanol] |
| 33 | 34 | c1cc2c3cnc(Nc4ccc(CN5CCNCC5)cn4)nc3n(C3CCCC3)c2cn1 [Example 212, 9-cyclopentyl-N-(5-(1-piperazinylmethyl)-2-pyridinyl)-9H-pyrido[4′,3′:4,5]pyrrolo[2,3-d]pyrimidin-2-amine] |
|  | 4.1 | CN(c1ccc(Nc2ncc3c4ccncc4n(C4CCCC4)c3n2)nc1)C1CCCNC1 (centres unmarked) [Example 68] |
|  | 0.97 | CN(C)C1CCN(c2ccc(Nc3ncc4c5ccncc5n(C5CCCC5)c4n3)cn2)CC1 [Example 56, 9-cyclopentyl-N-(6-(4-(dimethylamino)-1-piperidinyl)-3-pyridinyl)-9H-pyrido[4′,3′:4,5]pyrrolo[2,3-d]pyrimidin-2-amine] |
| 0.36 |  | c1ccc(-n2c3cnccc3c3cnc(Nc4ccc(N5CCNCC5)cc4)nc32)cc1 [Example 17, (9-Phenyl-9H-pyrido[4′,3′:4,5]pyrrolo[2,3-d]pyrimidin-2-yl)-(4-piperazin-1-yl-phenyl)amine] |
|  | 4.1 | c1cc2c3cnc(Nc4ccc(NCC5CCCNC5)cn4)nc3n(C3CCCC3)c2cn1 (centres unmarked) [Example 71] |
|  | 26.2 | COC(=O)N1CCN(c2ccc(Nc3ncc4c5ccnc(F)c5n(C5CCCC5)c4n3)nc2)CC1 [Example 192, Methyl 4-(6-((9-cyclopentyl-8-fluoro-9H-pyrido[4′,3′:4,5]pyrrolo[2,3-d]pyrimidin-2-yl)amino)-3-pyridinyl)-1-piperazinecarboxylate] |
| 2.2 | 2.2 | O=S1(=O)CC=C(c2ccc(Nc3ncc4c5ccncc5n(C5CCCC5)c4n3)nc2)CC1 [Example 265, 9-Cyclopentyl-N-(5-(1,1-dioxido-3,6-dihydro-2H-thiopyran-4-yl)-2-pyridinyl)-9H-pyrido[4′,3′:4,5]pyrrolo[2,3-d]pyrimidin-2-amine] |
| 24 | 5 | CN(C)[C@@H]1CN(c2ccc(Nc3ncc4c5ccncc5n(C5CCCC5)c4n3)nn2)CC[C@H]1O (single isomer, unassigned) [Example 258b, (3R*,4R*)-1-(6-((9-Cyclopentyl-9H-pyrido[4′,3′:4,5]pyrrolo[2,3-d]pyrimidin-2-yl)amino)-3-pyridazinyl)-3-(dimethylamino)-4-piperidinol] |
|  | 4.9 | c1cc2c3cnc(Nc4ccc(N5CCNCC5)cc4)nc3n(C3CC4CCC3C4)c2cn1 (centres unmarked) [Example 40, (9-Bicyclo[2.2.1]hept-2-yl-9H-pyrido[4′,3′:4,5]pyrrolo[2,3-d]pyrimidin-2-yl)-(4-piperazin-1-yl-phenyl)-amine] |
| 6.9 |  | CN(CCO)c1ccc(Nc2ncc3c4ccncc4n(C4CCCC4)c3n2)nn1 [Example 291] |
